The target in the assay is human neurokinin-1 receptor (NK1R) (Homo sapiens, UniProt P25103). Nature of the assay: Substance P receptor binding: 125I-substance P displacement from human NK1R expressed in COS cells. To be noted: read-out: IC50 (concentration required to inhibit the binding of substance P to the human neurokinin-1 receptor by 50%); 125I-SP, COS cells expressing human NK1R. How it is done:
The affinity of a variety of compounds for the substance P receptor was determined employing the following procedure.
A. Receptor Expression in COS
To express the cloned human neurokinin-1 receptor (NK1R) transiently in COS, the cDNA for the human NK1R was cloned into the expression vector pCDM9 which was derived from pCDM8 (Invitrogen) by inserting the ampicillin resistance gene (nucleotide 1973 to 2964 from Bluescript SK+) into the Sac II site. […]
The binding assay of human NK1R expressed in COS cells is based on the use of ^125 I-substance P (^125 I-SP, from DuPont, Boston, Mass.) as a radioactively labeled ligand which competes with unlabeled substance P or any other ligand for binding to the human NK1R. […] The bound radioactivity was separated from unbound radioactivity by GF/C filter (Brandel, Gaithersburg, Md.) which was pre-wetted with 0.1 polyethylenimine. The filter was washed with 3 ml of wash buffer (50 Tris pH 7.5, 5 mM MnCl21 150 mM NaCl) three times and its radioactivity was determined by gamma counter.
A variety of compounds were tested according to the COS cell procedure. The concentration of compound required to inhibit the binding of substance P to the human neurokinin-1 receptor by 50% was measured.

Sequences of proteins named here, by UniProt entry; tags and fusion partners are left off.
UniProt P25103, whole entry: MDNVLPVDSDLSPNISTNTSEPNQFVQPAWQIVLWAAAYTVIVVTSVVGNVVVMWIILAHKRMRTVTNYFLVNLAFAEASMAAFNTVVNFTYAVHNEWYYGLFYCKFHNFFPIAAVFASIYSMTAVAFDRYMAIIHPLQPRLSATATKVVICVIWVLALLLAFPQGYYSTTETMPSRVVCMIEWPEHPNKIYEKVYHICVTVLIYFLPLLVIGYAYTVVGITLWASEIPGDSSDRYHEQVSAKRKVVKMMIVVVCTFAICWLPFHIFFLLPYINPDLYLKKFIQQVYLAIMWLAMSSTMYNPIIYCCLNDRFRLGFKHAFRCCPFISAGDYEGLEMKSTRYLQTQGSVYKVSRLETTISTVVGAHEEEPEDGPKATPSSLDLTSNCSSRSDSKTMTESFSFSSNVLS

pIC50: −log10 of the molar value.

For the molecule `CO[C@@H]1O[C@H](COCCCCCNC(C)=O)[C@@H](OCc2ccccc2)[C@H](OCc2ccccc2)[C@H]1OCc1ccccc1`, the pIC50 is 6.40.

Source of the values: patent publication US5811512A, “Non-peptide peptidomimetics and related cyclic hexapeptides” (The Trustees of the University of Pennsylvania, priority 1996, dated 1998).
